The target in this experiment is PI3Kγ (Homo sapiens (Human), UniProt P48736). Briefly: PI3K gamma isoform inhibition. Format: biochemical. From the text:
Inhibitory activity can be determined routinely using known methods and also front commercial vendors offering this service for kinases and bromodomain proteins. […] In vivo, PI3K inhibition can be determined from target tissue biopsies by standard tissue processing to disrupt cells and then performing Western Blot analysis to determine the presence or absence of pAKT (substrate of PI3K) relative to a control sample. The activity of a compound of the invention as an inhibitor of a bromodomain-containing protein, such as a BET protein, such as BRD2, BRD3, BRD4, and/or BRDT, or an isoform or mutant thereof may be determined in vitro, in vivo, or in a cell line. In vitro assays include assays that determine inhibition of bromodomain-containing proteins. Alternatively, inhibitor binding may be determined by running a competition experiment where a provided compound is incubated with a bromodomain-containing protein, such as a BET protein bound to known ligands, labeled or unlabeled. For example, bromodomain inhibition can be determined in vitro using Alpha Screen Technology (http://www.reactionbiology.com/webapps/site/NewsPDFs/Bromodomain%20Assay%20Platform%20for%20Drug%/20Screening%20and%20Discovery.pdf). […]

The chains behind the UniProt entries cited, without tags or fusion partners. Where a name states a change or a piece, a line headed by the entry shows the natural chain unless it says otherwise.
UniProt P48736: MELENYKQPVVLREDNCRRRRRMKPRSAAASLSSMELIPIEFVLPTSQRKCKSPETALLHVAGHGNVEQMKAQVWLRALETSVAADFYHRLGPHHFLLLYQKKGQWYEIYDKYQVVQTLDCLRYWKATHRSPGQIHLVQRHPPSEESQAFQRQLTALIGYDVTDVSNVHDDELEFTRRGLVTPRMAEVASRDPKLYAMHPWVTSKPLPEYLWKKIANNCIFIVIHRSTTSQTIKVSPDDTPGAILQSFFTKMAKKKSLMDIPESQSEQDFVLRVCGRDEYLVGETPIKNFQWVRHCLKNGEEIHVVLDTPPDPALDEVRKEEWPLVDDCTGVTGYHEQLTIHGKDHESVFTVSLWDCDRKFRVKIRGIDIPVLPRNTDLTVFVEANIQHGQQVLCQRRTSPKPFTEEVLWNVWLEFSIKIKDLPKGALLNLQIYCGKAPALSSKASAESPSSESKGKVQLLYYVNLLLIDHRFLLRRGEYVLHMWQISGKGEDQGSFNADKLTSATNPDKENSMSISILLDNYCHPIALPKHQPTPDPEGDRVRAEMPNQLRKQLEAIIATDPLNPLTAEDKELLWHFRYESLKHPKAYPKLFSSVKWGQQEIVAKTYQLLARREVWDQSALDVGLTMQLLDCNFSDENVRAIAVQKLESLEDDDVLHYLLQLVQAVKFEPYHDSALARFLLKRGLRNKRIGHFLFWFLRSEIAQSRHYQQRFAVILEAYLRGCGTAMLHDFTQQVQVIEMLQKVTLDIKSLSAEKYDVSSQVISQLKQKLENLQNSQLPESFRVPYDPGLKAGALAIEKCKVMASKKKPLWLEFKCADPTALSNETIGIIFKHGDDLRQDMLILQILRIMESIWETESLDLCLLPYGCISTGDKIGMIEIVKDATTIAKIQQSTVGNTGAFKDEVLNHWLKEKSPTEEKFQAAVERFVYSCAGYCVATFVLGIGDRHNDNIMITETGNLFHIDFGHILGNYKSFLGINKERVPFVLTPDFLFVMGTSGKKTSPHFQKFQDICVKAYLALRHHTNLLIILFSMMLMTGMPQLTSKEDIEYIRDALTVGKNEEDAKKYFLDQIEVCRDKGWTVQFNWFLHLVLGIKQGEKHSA

Consider one molecule from patent US9505780B2, “Thienopyranones as kinase and epigenetic inhibitors” (SignalRx Pharmaceuticals, Inc., priority 2014, dated 2016).

The term IC50 denotes the concentration that gives 50% inhibition. A higher IC50 goes with weaker potency.

Consider `O=c1cc(N2CCOCC2)oc2c(-c3ccccc3)cccc12` [LY294002, 2-(4-morpholinyl)-8-phenyl-4H-1-benzopyran-4-one, reference compound], for which the IC50 is 1.06 µM.
